Protein sequences, listed by entry. Tags and fused reporters are not part of them. Chains listed by the source or under a name are the forms on record and can include a tag or linker. Residues count along the entry.
UniProt P17706, 1-387 with tags or gaps: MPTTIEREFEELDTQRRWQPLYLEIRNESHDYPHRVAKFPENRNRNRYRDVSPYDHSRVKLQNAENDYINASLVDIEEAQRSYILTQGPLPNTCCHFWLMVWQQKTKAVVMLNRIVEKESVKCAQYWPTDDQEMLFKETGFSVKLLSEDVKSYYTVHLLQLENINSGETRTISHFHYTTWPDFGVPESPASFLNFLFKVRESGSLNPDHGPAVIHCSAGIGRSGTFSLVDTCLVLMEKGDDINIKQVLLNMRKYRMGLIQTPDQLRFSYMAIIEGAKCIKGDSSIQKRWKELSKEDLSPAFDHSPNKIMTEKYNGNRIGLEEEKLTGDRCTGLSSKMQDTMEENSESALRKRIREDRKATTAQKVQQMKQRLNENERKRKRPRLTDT
UniProt P18031, whole entry: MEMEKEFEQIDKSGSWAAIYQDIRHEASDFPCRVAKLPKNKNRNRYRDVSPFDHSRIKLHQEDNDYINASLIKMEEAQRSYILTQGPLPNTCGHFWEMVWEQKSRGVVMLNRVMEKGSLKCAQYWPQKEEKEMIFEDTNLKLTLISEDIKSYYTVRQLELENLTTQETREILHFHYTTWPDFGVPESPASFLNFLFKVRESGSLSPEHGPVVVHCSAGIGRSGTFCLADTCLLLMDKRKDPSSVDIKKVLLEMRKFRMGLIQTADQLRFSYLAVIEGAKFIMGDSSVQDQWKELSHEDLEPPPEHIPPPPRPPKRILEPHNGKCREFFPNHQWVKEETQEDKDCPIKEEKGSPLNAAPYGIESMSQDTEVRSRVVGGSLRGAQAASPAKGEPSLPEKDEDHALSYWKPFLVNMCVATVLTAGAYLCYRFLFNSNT

In patent US20260384459A1, “SUBSTITUTED QUINAZOLINE DERIVATIVES AND METHODS OF USE THEREOF” (published 2026):

Key:
[1] = target: human PTPN2 (Homo sapiens, UniProt P17706); test: Human PTPN2 Biochemical Assay; settings: read-out: PTPN2 IC50; human PTPN2 (1-387), DiFMUP substrate, 30 min preincubation, 1 hour at room temperature, pH 7.4
Protocol: Human PTPN2 Biochemical Assay
(§1) For this assay, test compounds were dissolved in DMSO, and 10-point serial 3-fold dilution series in DMSO were prepared in Echo Qualified 384-well Polypropylene Microplates (Labcyte, San Jose, CA) (top concentration 50 μM). Assay plates (384-well low volume black plates; Corning #3820, Corning, NY) were prepared by dispensing 50 nL of test compounds, and DMSO (for high and low controls) by ECHO acoustic dispenser (Labcyte, San Jose CA). This was followed by addition of 5 μL of 0.2 nM human PTPN2 (1-387) solution (prepared in the assay buffer, 50 mM Tris pH 7.4, 150 mM NaCl, 0.01% Tween20, 0.5 mM dithiothreitol) to all wells except the low control. 5 μl of assay buffer was added into the low control. The plate was incubated for 30 minutes at room temperature. Subsequently, 5 μl of 100 μM DiFMUP (6,8-difluoro-4-methylumbelliferyl phosphate) solution (prepared in assay buffer from 10 mM stock in DMSO) was added to the assay plate, and incubated for 1 hour at room temperature. For detection, assay plates were read on SpectraMax Microplate Reader (Molecular Devices), with Excitation wavelength=360 nm and Emission wavelength=460 nm. Test compound effects were normalized to the window defined by the controls, DMSO/buffer, and DMSO/50 pM human PTPN2. Calculated % effects were fit using a 4-parameter algorithm, and EC50 was reported.

[2] = target: human PTPN1 (Homo sapiens, UniProt P18031); test: Human PTPN1 Biochemical Assay; settings: read-out: PTP1B IC50; human PTPN1 (1-435), DiFMUP substrate, 30 min preincubation, 1 hour at room temperature, pH 7.4
Protocol: Human PTPN1 Biochemical Assay
as §1, with “6” for “0.2”, “PTPN1 (1-435)” for “PTPN2 (1-387)”, “controls.” for “controls,”, “DMSO/150” for “DMSO/50”, “PTPN1.” for “PTPN2.”

[3] = tested on: retinal neovascularization; settings: mice; cited from earlier work
[4] = tested on: xenografts; settings: SCID-beige mice; cited from earlier work
[5] = tested on: ErbB2-driven mammary tumors; settings: transgenic mice; cited from earlier work

SMILES	IC50 [1] [nM]	IC50 [2] [nM]	development of retinal neovascularization [3]	growth of xenografts [4]	metastasis of ErbB2-driven mammary tumors [5]
N#Cc1cc2cnc(NCCCS(N)(=O)=O)nc2cc1C(F)(F)P(=O)(O)O	727	571	–	–	–
CN(CCOc1ccc(CC2SC(=O)NC2=O)cc1)c1ccccn1 (centres unmarked)	–	–	inhibit the development of retinal neovascularization	–	–
CS(=O)(=O)CCCNc1ncc2cc(Br)c(C(F)(F)P(=O)(O)O)cc2n1	1610	1120	–	–	–
O=P(O)(O)C(F)(F)c1cc2nc(NC[C@H]3CC3(F)F)ncc2cc1Br	1010	1010	–	–	–
O=P(O)(O)C(F)(F)c1cc2nc(NCC[C@@H]3CCCS3(=O)=O)ncc2cc1Br	702	633	–	–	–
CC(C)[C@@H](CC[C@@H](C)[C@H]1CC[C@H]2[C@@H]3[C@H](O)C[C@H]4C[C@@H](NCCCNCCCCNCCCN)CC[C@]4(C)[C@H]3CC[C@]12C)OS(=O)(=O)O	–	–	–	attenuates the growth of xenografts	the metastasis of ErbB2-driven mammary tumors
Cc1c(C)c2c(c(C)c1O)CCC(C)(COc1ccc(CC3SC(=O)NC3=O)cc1)O2 (centres unmarked)	–	–	inhibit the development of retinal neovascularization	–	–
O=P(O)(O)C(F)(F)c1cc2nc(OCC3CC3(F)F)ncc2cc1Br (centres unmarked)	1030	598	–	–	–
CC(F)(F)CCCNc1ncc2cc(Br)c(C(F)(F)P(=O)(O)O)cc2n1	505	401	–	–	–
NS(=O)(=O)CCCNc1ncc2cc(Br)c(C(F)(F)P(=O)(O)O)cc2n1	686	613	–	–	–
O=P(O)(O)C(F)(F)c1cc2nc(NCC[C@H]3CCCS3(=O)=O)ncc2cc1Br	975	755	–	–	–
O=P(O)(O)C(F)(F)c1cc2nc(NC[C@@H]3CC3(F)F)ncc2cc1Br	802	756	–	–	–

Second part, led by results:

IC50 [1] [nM]	IC50 [2] [nM]	SMILES	development of retinal neovascularization [3]	growth of xenografts [4]	metastasis of ErbB2-driven mammary tumors [5]
189	169	O=P(O)(O)C(F)(F)c1cc2nc(OCCCC(F)(F)F)ncc2cc1Br	–	–	–
82	162	CC(C)(O)CCOc1ncc2cc(Br)c(C(F)(F)P(=O)(O)O)cc2n1	–	–	–
167	121	CC(F)(F)CCCOc1ncc2cc(Br)c(C(F)(F)P(=O)(O)O)cc2n1	–	–	–
467	428	O=P(O)(O)C(F)(F)c1cc2nc(OCC3CC3(F)F)ncc2cc1Br (single isomer, unassigned)	–	–	–
225	179	O=P(O)(O)C(F)(F)c1cc2nc(NCCCC(F)(F)F)ncc2cc1Br	–	–	–
223	204	O=P(O)(O)C(F)(F)c1cc2nc(OCCC3CCCS3(=O)=O)ncc2cc1Br (centres unmarked)	–	–	–
403	308	O=P(O)(O)C(F)(F)c1cc2nc(OCC[C@@H]3CCCS3(=O)=O)ncc2cc1Br	–	–	–
265	212	CCOc1ncc2cc(Br)c(C(F)(F)P(=O)(O)O)cc2n1	–	–	–
429	–	CS(=O)(=O)CCCOc1ncc2cc(Br)c(C(F)(F)P(=O)(O)O)cc2n1	–	–	–
296	186	N#Cc1cc2cnc(NCCCC(F)(F)F)nc2cc1C(F)(F)P(=O)(O)O	–	–	–
178	250	NS(=O)(=O)CCCOc1ncc2cc(Br)c(C(F)(F)P(=O)(O)O)cc2n1	–	–	–
155	117	O=C(Nc1ccon1)c1ncc2cc(Br)c(C(F)(F)P(=O)(O)O)cc2n1	–	–	–
245	180	CC(C)(O)CCNc1ncc2cc(Br)c(C(F)(F)P(=O)(O)O)cc2n1	–	–	–
